Source: PubChem BioAssay (NCI)
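Method: 48-hour compound exposure of cells in 96-well plates, five concentrations, linear interpolation of endpoints. GI50 = concentration required for 50% inhibition of growth. TGI: concentration producing complete growth inhibition.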

Assays:
Experiment in all cases: NCI-60 cell line screen, 48 h
NCI-H226 lung = system: NCI-H226 lung
HCC-2998 colon = system: HCC-2998 colon
786-0 renal = system: 786-0 renal
KM12 colon = system: KM12 colon
CAKI-1 renal = system: CAKI-1 renal
SK-MEL-28 melanoma = system: SK-MEL-28 melanoma
COLO 205 colon = system: COLO 205 colon
IGROV1 ovarian = system: IGROV1 ovarian
TK-10 renal = system: TK-10 renal
UACC-257 melanoma = system: UACC-257 melanoma
OVCAR-4 ovarian = system: OVCAR-4 ovarian
SF-295 CNS = system: SF-295 CNS
OVCAR-8 ovarian = system: OVCAR-8 ovarian
SNB-19 CNS = system: SNB-19 CNS
MDA-MB-231 breast = system: MDA-MB-231 breast
A549 NSCLC = system: A549 NSCLC
DU-145 prostate = system: DU-145 prostate
SK-MEL-2 melanoma = system: SK-MEL-2 melanoma
HL-60(TB) leukemia = system: HL-60(TB) leukemia
MCF7 breast = system: MCF7 breast
ACHN renal = system: ACHN renal
M14 melanoma = system: M14 melanoma
CCRF-CEM leukemia = system: CCRF-CEM leukemia
SNB-75 CNS = system: SNB-75 CNS
MALME-3M melanoma = system: MALME-3M melanoma
NCI-H522 lung = system: NCI-H522 lung
SR leukemia = system: SR leukemia
HS 578T breast = system: HS 578T breast
LOX IMVI melanoma = system: LOX IMVI melanoma
NCI/ADR-RES ovarian = system: NCI/ADR-RES ovarian
SK-MEL-5 melanoma = system: SK-MEL-5 melanoma
UACC-62 melanoma = system: UACC-62 melanoma
NCI-H460 lung = system: NCI-H460 lung
SF-268 CNS = system: SF-268 CNS
NCI-H23 lung = system: NCI-H23 lung
HCT-15 colon = system: HCT-15 colon
EKVX NSCLC = system: EKVX NSCLC
UO-31 renal = system: UO-31 renal
T-47D breast = system: T-47D breast
U251 CNS = system: U251 CNS
K-562 leukemia = system: K-562 leukemia
HT29 colon = system: HT29 colon
OVCAR-3 ovarian = system: OVCAR-3 ovarian
SF-539 CNS = system: SF-539 CNS
SN12C renal = system: SN12C renal
PC-3 prostate = system: PC-3 prostate
RXF 393 renal = system: RXF 393 renal
SK-OV-3 ovarian = system: SK-OV-3 ovarian
OVCAR-5 ovarian = system: OVCAR-5 ovarian
NCI-H322M lung = system: NCI-H322M lung
SW-620 colon = system: SW-620 colon
MDA-MB-435 = system: MDA-MB-435
MDA-N = system: MDA-N
MOLT-4 leukemia = system: MOLT-4 leukemia
BT-549 breast = system: BT-549 breast
HCT-116 colon = system: HCT-116 colon
HOP-62 NSCLC = system: HOP-62 NSCLC

Which GI50 (NCI-H226 lung) does the source give for CCP1(=O)N(C)[C@@H]2CCCC[C@H]2N1C here?
Its GI50 is > 100 µM.

What about the TGI (NCI-H226 lung) of the same compound?
Its TGI is > 100 µM.

And the GI50 (HCC-2998 colon)?
The GI50 was > 100 µM.

And the TGI (HCC-2998 colon)?
Its TGI is > 100 µM.

What about the GI50 (786-0 renal) of the same compound?
Its GI50 is > 100 µM.

And the TGI (786-0 renal)?
The TGI was > 100 µM.

And the GI50 (KM12 colon)?
Its GI50 is > 100 µM.

And the TGI (KM12 colon)?
Its TGI is > 100 µM.

What about the GI50 (CAKI-1 renal) of the same compound?
Its GI50 is > 100 µM.

What about the TGI (CAKI-1 renal) of the same compound?
The TGI was > 100 µM.

And the GI50 (SK-MEL-28 melanoma)?
Its GI50 is > 100 µM.

And the TGI (SK-MEL-28 melanoma)?
The TGI was > 100 µM.

And the GI50 (COLO 205 colon)?
Its GI50 is > 100 µM.

What about the TGI (COLO 205 colon) of the same compound?
The TGI was > 100 µM.

What about the GI50 (IGROV1 ovarian) of the same compound?
Its GI50 is 0.0436 µM.

And the TGI (IGROV1 ovarian)?
Its TGI is 5.2 µM.

What about the GI50 (TK-10 renal) of the same compound?
Its GI50 is > 100 µM.

And the TGI (TK-10 renal)?
Its TGI is > 100 µM.

And the GI50 (UACC-257 melanoma)?
Its GI50 is > 100 µM.

What about the TGI (UACC-257 melanoma) of the same compound?
Its TGI is > 100 µM.

And the GI50 (OVCAR-4 ovarian)?
The GI50 was > 100 µM.

And the TGI (OVCAR-4 ovarian)?
Its TGI is > 100 µM.

What about the GI50 (SF-295 CNS) of the same compound?
Its GI50 is > 100 µM.

What about the TGI (SF-295 CNS) of the same compound?
The TGI was > 100 µM.

And the GI50 (OVCAR-8 ovarian)?
The GI50 was > 100 µM.

And the TGI (OVCAR-8 ovarian)?
The TGI was > 100 µM.

What about the GI50 (SNB-19 CNS) of the same compound?
Its GI50 is > 100 µM.

What about the TGI (SNB-19 CNS) of the same compound?
Its TGI is > 100 µM.

And the GI50 (MDA-MB-231 breast)?
Its GI50 is > 100 µM.

What about the TGI (MDA-MB-231 breast) of the same compound?
The TGI was > 100 µM.

And the GI50 (A549 NSCLC)?
Its GI50 is > 100 µM.

And the TGI (A549 NSCLC)?
The TGI was > 100 µM.

And the GI50 (DU-145 prostate)?
Its GI50 is > 100 µM.

And the TGI (DU-145 prostate)?
The TGI was > 100 µM.

What about the GI50 (SK-MEL-2 melanoma) of the same compound?
The GI50 was > 100 µM.

What about the TGI (SK-MEL-2 melanoma) of the same compound?
The TGI was > 100 µM.

What about the GI50 (HL-60(TB) leukemia) of the same compound?
The GI50 was > 100 µM.

What about the TGI (HL-60(TB) leukemia) of the same compound?
Its TGI is > 100 µM.

And the GI50 (MCF7 breast)?
Its GI50 is > 100 µM.

What about the TGI (MCF7 breast) of the same compound?
The TGI was > 100 µM.

What about the GI50 (ACHN renal) of the same compound?
The GI50 was > 100 µM.

And the TGI (ACHN renal)?
The TGI was > 100 µM.

And the GI50 (M14 melanoma)?
Its GI50 is > 100 µM.

What about the TGI (M14 melanoma) of the same compound?
The TGI was > 100 µM.

And the GI50 (CCRF-CEM leukemia)?
Its GI50 is > 100 µM.

What about the TGI (CCRF-CEM leukemia) of the same compound?
Its TGI is > 100 µM.

And the GI50 (SNB-75 CNS)?
The GI50 was > 100 µM.

What about the TGI (SNB-75 CNS) of the same compound?
The TGI was > 100 µM.

And the GI50 (MALME-3M melanoma)?
Its GI50 is > 100 µM.

And the TGI (MALME-3M melanoma)?
The TGI was > 100 µM.

What about the GI50 (NCI-H522 lung) of the same compound?
The GI50 was > 100 µM.

And the TGI (NCI-H522 lung)?
Its TGI is > 100 µM.

And the GI50 (SR leukemia)?
The GI50 was > 100 µM.

And the TGI (SR leukemia)?
The TGI was > 100 µM.

And the GI50 (HS 578T breast)?
Its GI50 is > 100 µM.

What about the TGI (HS 578T breast) of the same compound?
The TGI was > 100 µM.

And the GI50 (LOX IMVI melanoma)?
Its GI50 is > 100 µM.

And the TGI (LOX IMVI melanoma)?
Its TGI is > 100 µM.

What about the GI50 (NCI/ADR-RES ovarian) of the same compound?
The GI50 was > 100 µM.

And the TGI (NCI/ADR-RES ovarian)?
The TGI was > 100 µM.

And the GI50 (SK-MEL-5 melanoma)?
The GI50 was > 100 µM.

And the TGI (SK-MEL-5 melanoma)?
Its TGI is > 100 µM.

And the GI50 (UACC-62 melanoma)?
The GI50 was > 100 µM.

What about the TGI (UACC-62 melanoma) of the same compound?
The TGI was > 100 µM.

And the GI50 (NCI-H460 lung)?
The GI50 was > 100 µM.

What about the TGI (NCI-H460 lung) of the same compound?
Its TGI is > 100 µM.

What about the GI50 (SF-268 CNS) of the same compound?
The GI50 was > 100 µM.

What about the TGI (SF-268 CNS) of the same compound?
The TGI was > 100 µM.

And the GI50 (NCI-H23 lung)?
The GI50 was > 100 µM.

And the TGI (NCI-H23 lung)?
The TGI was > 100 µM.

What about the GI50 (HCT-15 colon) of the same compound?
The GI50 was > 100 µM.

And the TGI (HCT-15 colon)?
Its TGI is > 100 µM.

What about the GI50 (EKVX NSCLC) of the same compound?
Its GI50 is > 100 µM.

What about the TGI (EKVX NSCLC) of the same compound?
The TGI was > 100 µM.

And the GI50 (UO-31 renal)?
Its GI50 is > 100 µM.

And the TGI (UO-31 renal)?
Its TGI is > 100 µM.

And the GI50 (T-47D breast)?
The GI50 was > 100 µM.

What about the TGI (T-47D breast) of the same compound?
The TGI was > 100 µM.

What about the GI50 (U251 CNS) of the same compound?
The GI50 was > 100 µM.

And the TGI (U251 CNS)?
Its TGI is > 100 µM.

And the GI50 (K-562 leukemia)?
The GI50 was > 100 µM.

And the TGI (K-562 leukemia)?
Its TGI is > 100 µM.

What about the GI50 (HT29 colon) of the same compound?
The GI50 was > 100 µM.

What about the TGI (HT29 colon) of the same compound?
The TGI was > 100 µM.

What about the GI50 (OVCAR-3 ovarian) of the same compound?
Its GI50 is > 100 µM.

And the TGI (OVCAR-3 ovarian)?
The TGI was > 100 µM.

What about the GI50 (SF-539 CNS) of the same compound?
The GI50 was > 100 µM.

What about the TGI (SF-539 CNS) of the same compound?
The TGI was > 100 µM.

What about the GI50 (SN12C renal) of the same compound?
Its GI50 is > 100 µM.

What about the TGI (SN12C renal) of the same compound?
Its TGI is > 100 µM.

And the GI50 (PC-3 prostate)?
Its GI50 is > 100 µM.

What about the TGI (PC-3 prostate) of the same compound?
The TGI was > 100 µM.

And the GI50 (RXF 393 renal)?
The GI50 was > 100 µM.

And the TGI (RXF 393 renal)?
Its TGI is > 100 µM.

What about the GI50 (SK-OV-3 ovarian) of the same compound?
Its GI50 is > 100 µM.

What about the TGI (SK-OV-3 ovarian) of the same compound?
Its TGI is > 100 µM.

And the GI50 (OVCAR-5 ovarian)?
The GI50 was > 100 µM.

And the TGI (OVCAR-5 ovarian)?
The TGI was > 100 µM.

What about the GI50 (NCI-H322M lung) of the same compound?
The GI50 was > 100 µM.

What about the TGI (NCI-H322M lung) of the same compound?
The TGI was > 100 µM.

What about the GI50 (SW-620 colon) of the same compound?
Its GI50 is > 100 µM.

What about the TGI (SW-620 colon) of the same compound?
Its TGI is > 100 µM.

And the GI50 (MDA-MB-435)?
Its GI50 is > 100 µM.

What about the TGI (MDA-MB-435) of the same compound?
Its TGI is > 100 µM.

And the GI50 (MDA-N)?
Its GI50 is > 100 µM.

And the TGI (MDA-N)?
Its TGI is > 100 µM.

What about the GI50 (MOLT-4 leukemia) of the same compound?
Its GI50 is > 100 µM.

What about the TGI (MOLT-4 leukemia) of the same compound?
Its TGI is > 100 µM.

And the GI50 (BT-549 breast)?
Its GI50 is > 100 µM.

What about the TGI (BT-549 breast) of the same compound?
The TGI was > 100 µM.

And the GI50 (HCT-116 colon)?
The GI50 was > 100 µM.

And the TGI (HCT-116 colon)?
Its TGI is > 100 µM.

And the GI50 (HOP-62 NSCLC)?
Its GI50 is > 100 µM.

And the TGI (HOP-62 NSCLC)?
The TGI was > 100 µM.
